# Permeability data for macrocyclic peptides

PAMPA measures passive passage through an artificial lipid membrane. Permeability is in 10^-6 cm/s, converted from the database's log10 values; higher is more permeable.

CCCN1CC(=O)N(C)[C@H](CC(C)C)C(=O)N(C)[C@@H](CC(C)C)C(=O)N2CCC[C@@H]2C(=O)N(C)[C@@H](CC(C)C)C(=O)N[C@@H](Cc2ccccc2)C(=O)N2CCC[C@@H]2C1=O is reported with PAMPA 14 × 10^-6 cm/s. For CC(C)C[C@@H]1NC(=O)[C@@H](C)NC(=O)[C@@H]2CCCN2C(=O)[C@H](Cc2ccccc2)NC(=O)[C@@H](CC(C)C)NC(=O)[C@@H]2CCCN2C(=O)[C@@H](CC(C)C)NC1=O the data give PAMPA 0.22 × 10^-6 cm/s. Listed for CC(C)C[C@@H]1C(=O)N2CCC[C@@H]2C(=O)N[C@H](CC(C)C)C(=O)N[C@@H](Cc2ccccc2)C(=O)N2CCC[C@@H]2C(=O)N[C@@H](Cc2ccccc2)CC(=O)N[C@H](CC(C)C)C(=O)N1C: PAMPA 2.6 × 10^-6 cm/s. For CC(C)C[C@H]1C(=O)N[C@@H](Cc2ccccc2)CC(=O)N2CCC[C@H]2C(=O)N(C)[C@@H](CC(C)C)C(=O)N[C@@H](Cc2ccccc2)C(=O)N2CCC[C@H]2C(=O)N(C)[C@H](C)C(=O)N1C the data give PAMPA 3.6 × 10^-6 cm/s. The entry for CC(C)C[C@@H]1NC(=O)[C@H](C)NC(=O)[C@H](Cc2ccccc2)NC(=O)CN(Cc2ccccc2)C(=O)[C@H]2CCCN2C(=O)[C@H](CC(C)C)NC1=O lists PAMPA 1.3 × 10^-6 cm/s. CC(C)C[C@@H]1NC(=O)[C@@H](CC(C)C)N(C)C(=O)[C@H](C)N(C)C(=O)[C@@H]2CCCN2C(=O)[C@H](Cc2ccccc2)NC(=O)CN(Cc2ccccc2)C(=O)[C@@H]2CCCN2C1=O is reported with PAMPA 1.5 × 10^-6 cm/s. The entry for CC(C)C[C@H]1NC(=O)[C@H](C)N(C)C(=O)[C@H](Cc2ccccc2)NC(=O)[C@@H](CC(C)C)NC(=O)[C@@H]2CCCN2C(=O)[C@@H](CC(C)C)NC1=O lists PAMPA 5.1 × 10^-6 cm/s. CC(C)C[C@@H]1C(=O)N(C)[C@@H](CC(C)C)C(=O)N2CCC[C@@H]2C(=O)N(Cc2ccccc2)CC(=O)N[C@@H](Cc2ccccc2)C(=O)N2CCC[C@@H]2C(=O)N[C@H](C)C(=O)N1C has PAMPA 2.3 × 10^-6 cm/s.

CCCN1CC(=O)N(C)[C@H](CC(C)C)C(=O)N[C@H](CC(C)C)C(=O)N2CCC[C@@H]2C(=O)N(Cc2ccccc2)CC(=O)N[C@@H](Cc2ccccc2)C(=O)N2CCC[C@@H]2C1=O is reported with PAMPA 4.1 × 10^-6 cm/s. For CC(C)C[C@@H]1C(=O)N2CCC[C@H]2C(=O)N[C@H](CC(C)C)C(=O)N[C@@H](Cc2ccccc2)C(=O)N[C@H](C)C(=O)N[C@H](CC(C)C)C(=O)N1C the data give PAMPA 2 × 10^-6 cm/s. Listed for CC(C)C[C@@H]1C(=O)N(Cc2ccccc2)CC(=O)N2CCC[C@@H]2C(=O)N[C@H](CC(C)C)C(=O)N[C@@H](Cc2ccccc2)C(=O)N(C)[C@H](C)C(=O)N1C: PAMPA 5.5 × 10^-6 cm/s. For CC(C)C[C@@H]1C(=O)N2CCC[C@H]2C(=O)N(C)[C@H](CC(C)C)C(=O)N[C@@H](Cc2ccccc2)C(=O)N2CCC[C@H]2C(=O)N[C@H](C)C(=O)N(C)[C@@H](CC(C)C)C(=O)N1C the data give PAMPA 2.1 × 10^-6 cm/s. The entry for CC(C)C[C@H]1NC(=O)[C@H](C)N(C)C(=O)[C@@H]2CCCN2C(=O)[C@H](Cc2ccccc2)NC(=O)CN(Cc2ccccc2)C(=O)[C@@H]2CCCN2C(=O)[C@H](CC(C)C)N(C)C1=O lists PAMPA 1.3 × 10^-6 cm/s. The entry for CCCN1CC(=O)N[C@@H](CC(C)C)C(=O)N[C@@H](CC(C)C)C(=O)N2CCC[C@H]2C(=O)N(C)[C@@H](CC(C)C)C(=O)N[C@@H](Cc2ccccc2)C(=O)N2CCC[C@H]2C1=O lists PAMPA 1.7 × 10^-6 cm/s. CC(C)C[C@@H]1NC(=O)[C@@H](CC(C)C)N(C)C(=O)C[C@H](Cc2ccccc2)NC(=O)[C@H]2CCCN2C(=O)[C@H](Cc2ccccc2)NC(=O)[C@@H](CC(C)C)N(C)C(=O)[C@@H]2CCCN2C1=O is reported with PAMPA 4.9 × 10^-6 cm/s. The entry for CC(C)C[C@@H]1NC(=O)[C@@H](CC(C)C)N(C)C(=O)[C@H](C)NC(=O)[C@H]2CCCN2C(=O)[C@H](Cc2ccccc2)NC(=O)[C@@H](CC(C)C)N(C)C(=O)[C@H]2CCCN2C1=O lists PAMPA 12 × 10^-6 cm/s.

Listed for CC(C)C[C@@H]1NC(=O)[C@@H]2CCCN2C(=O)CN(Cc2ccccc2)C(=O)[C@@H](CC(C)C)N(C)C(=O)[C@@H](C)NC(=O)[C@H](Cc2ccccc2)NC1=O: PAMPA 0.81 × 10^-6 cm/s. Listed for CC(C)C[C@@H]1C(=O)N(Cc2ccccc2)CC(=O)N2CCC[C@H]2C(=O)N(Cc2ccccc2)CC(=O)N[C@@H](Cc2ccccc2)C(=O)N2CCC[C@H]2C(=O)N(C)[C@@H](C)C(=O)N1C: PAMPA 1.2 × 10^-6 cm/s. Listed for CC(C)C[C@@H]1C(=O)N2CCC[C@H]2C(=O)N(Cc2ccccc2)CC(=O)N[C@@H](Cc2ccccc2)C(=O)N2CCC[C@@H]2C(=O)N[C@H](C)C(=O)N[C@H](CC(C)C)C(=O)N1C: PAMPA 0.38 × 10^-6 cm/s. Listed for CC(C)C[C@@H]1C(=O)N(C)[C@@H](CC(C)C)C(=O)N2CCC[C@H]2C(=O)N(C)[C@@H](CC(C)C)C(=O)N[C@@H](Cc2ccccc2)C(=O)N2CCC[C@H]2C(=O)N[C@H](C)C(=O)N1C: PAMPA 1.8 × 10^-6 cm/s. CC(C)C[C@@H]1NC(=O)[C@H](C)N(C)C(=O)[C@H](Cc2ccccc2)NC(=O)[C@@H](CC(C)C)NC(=O)[C@@H]2CCCN2C(=O)[C@H](CC(C)C)NC1=O is reported with PAMPA 0.47 × 10^-6 cm/s.

2 of these entries, quoted again:

structure (SMILES)	PAMPA (10^-6 cm/s)
CC(C)C[C@@H]1NC(=O)[C@@H](CC(C)C)N(C)C(=O)C[C@H](Cc2ccccc2)NC(=O)[C@H]2CCCN2C(=O)[C@H](Cc2ccccc2)NC(=O)[C@@H](CC(C)C)N(C)C(=O)[C@@H]2CCCN2C1=O	4.9
CC(C)C[C@@H]1NC(=O)[C@@H](C)NC(=O)[C@@H]2CCCN2C(=O)[C@H](Cc2ccccc2)NC(=O)[C@@H](CC(C)C)NC(=O)[C@@H]2CCCN2C(=O)[C@@H](CC(C)C)NC1=O	0.22

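The data file gives no further conditions (lipid, pH, time, direction or concentration), and values from different papers need not be comparable. Other peptides of the study may be missing here. Peptides that the database sets to -10, its floor, are left out.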

Collected by the curators of CycPeptMPDB (Li et al. 2023) from Townsend et al. 2020, doi:10.26434/chemrxiv.13335941.v1.